Laboratory results from patent EP0528486A2, “Non-substrate inhibitors of farnesyl protein transferase” (MERCK & CO. INC., priority 1991, dated 1993).

Biological target: farnesyl-protein transferase from bovine brain (bovine) (UniProt P29702)
Assay: cell-based or functional assay

Row | Substance | IC₅₀ (µM), Inhibition of Ras Farnesylation by Tetrapeptides
1 | CVLS-NH₂ (SEQ ID NO: 1) (peptide) | 16 µM
2 | CVFM-NH₂ (SEQ ID NO: 2) (peptide) | 2.3 µM
